Test results: ChEMBL document CHEMBL1142484, “Design and synthesis of sulfoximine based inhibitors for HIV-1 protease” (Bioorg Med Chem Lett, 2008)

Target: Protease (Human immunodeficiency virus 1, UniProt Q9YQ12)
Assay: Inhibition of HIV1 protease

IC50: 0.4 nM
SMILES: CC(C)(C)NC(=O)[C@@H]1CN(Cc2cccnc2)CCN1C[C@@H](O)C[C@@H](Cc1ccccc1)C(=O)N[C@H]1c2ccccc2C[C@H]1O [INDINAVIR]
